For 1 compound, Ki results are on record in ChEMBL document CHEMBL3769318, “The Rational Design of Selective Benzoxazepin Inhibitors of the α-Isoform of Phosphoinositide 3-Kinase Culminating in the Identification of (S)-2-((2-(1-Isopropyl-1H-1,2,4-triazol-5-yl)-5,6-dihydrobenzo[f]imidazo[1,2-d][1,4]oxazepin-9-yl)oxy)propanamide (GDC-0326)” (J Med Chem, 2016).

The chains behind the UniProt entries cited, without tags or fusion partners.
UniProt P42336, whole entry: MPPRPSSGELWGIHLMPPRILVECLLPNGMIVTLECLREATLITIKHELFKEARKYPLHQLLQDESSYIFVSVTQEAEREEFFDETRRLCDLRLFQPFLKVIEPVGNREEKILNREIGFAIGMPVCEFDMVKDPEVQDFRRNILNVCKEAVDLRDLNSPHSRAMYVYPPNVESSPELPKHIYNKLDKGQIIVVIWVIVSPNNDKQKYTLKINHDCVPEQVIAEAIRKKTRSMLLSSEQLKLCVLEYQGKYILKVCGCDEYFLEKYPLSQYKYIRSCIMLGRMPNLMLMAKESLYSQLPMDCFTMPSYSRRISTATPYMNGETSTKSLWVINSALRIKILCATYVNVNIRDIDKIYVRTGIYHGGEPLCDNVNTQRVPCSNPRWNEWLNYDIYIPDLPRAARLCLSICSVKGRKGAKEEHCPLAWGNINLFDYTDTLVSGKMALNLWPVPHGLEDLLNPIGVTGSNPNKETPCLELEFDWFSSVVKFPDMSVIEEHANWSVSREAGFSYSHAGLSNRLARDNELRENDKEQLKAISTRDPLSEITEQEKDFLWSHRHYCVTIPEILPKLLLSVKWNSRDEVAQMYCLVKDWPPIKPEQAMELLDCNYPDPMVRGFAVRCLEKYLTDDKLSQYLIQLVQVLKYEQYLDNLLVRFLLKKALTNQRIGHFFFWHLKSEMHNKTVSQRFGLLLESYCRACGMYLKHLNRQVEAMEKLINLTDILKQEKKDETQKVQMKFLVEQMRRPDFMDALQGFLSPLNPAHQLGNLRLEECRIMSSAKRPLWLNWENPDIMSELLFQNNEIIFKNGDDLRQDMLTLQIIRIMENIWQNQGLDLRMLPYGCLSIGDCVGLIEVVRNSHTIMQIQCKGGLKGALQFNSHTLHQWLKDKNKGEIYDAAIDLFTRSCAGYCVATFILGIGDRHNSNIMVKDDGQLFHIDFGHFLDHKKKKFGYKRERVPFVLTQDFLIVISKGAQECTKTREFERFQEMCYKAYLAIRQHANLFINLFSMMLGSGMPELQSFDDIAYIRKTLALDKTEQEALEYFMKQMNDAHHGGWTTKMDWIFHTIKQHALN

The experiment has as its target Phosphatidylinositol 4,5-bisphosphate 3-kinase catalytic subunit alpha isoform (Homo sapiens, UniProt P42336). The experiment is described as follows: Inhibition of recombinant PI3K alpha (unknown origin) using PIP2 as substrate by fluorescence polarization assay. As to conditions: read-out: Ki(app).

Consider `Cc1nc(-c2cn3c(n2)-c2ccc(-c4cnn(C(C)(C)C(N)=O)c4)cc2OCC3)n(C(C)C)n1` [TASELISIB], for which the Ki is 0.3 nM.
